## Antibody variant affinities, Ab-14 light chain, assay B

Source: Li et al. 2023 (doi:10.1038/s41467-023-39022-2), MIT Lincoln Laboratory and A-Alpha Bio; data file from the FLAb repository.

Antigen: PDVDLGDISGINAS, a 14-residue peptide of the SARS-CoV-2 spike HR2 region.

Ab-14 is the parent antibody, in scFv form: VH, then three GGGGS repeats, then VL. The heavy chain is unchanged in all variants.
VH: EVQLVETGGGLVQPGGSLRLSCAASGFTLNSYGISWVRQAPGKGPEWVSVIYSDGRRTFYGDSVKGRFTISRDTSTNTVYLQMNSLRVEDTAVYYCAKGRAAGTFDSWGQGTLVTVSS
VL: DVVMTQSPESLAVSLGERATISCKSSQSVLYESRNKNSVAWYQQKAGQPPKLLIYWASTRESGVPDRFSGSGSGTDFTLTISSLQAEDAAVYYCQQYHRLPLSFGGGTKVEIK

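The variants were designed computationally from a first round of random CDR variants and then made and measured. Their group label is 14L_En_Gen (En: ensemble of fine-tuned language models; Gen: genetic algorithm). In AlphaSeq, yeast of one mating type display the scFv and yeast of the other type display the target. Mating (16 h, 30 °C) was followed by selection of diploids and sequencing of their barcodes. Each replicate has its own calibration line, from reference interactions of the BCL2 family. The assay was run in six technical replicates.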

Each variant is given by its three light chain CDRs, as the data file delimits them; those of the parent are KSSQSVLYESRNKNSVA, WASTRES, QQYHRLPLS.
Scale: log10 of Kd in nM, estimated from mating counts; low values are strong binders.
A mean of the replicates is given; it leaves out those without a signal.
"n.d." marks a missing value. The strain was present, yet no cells mated with the target were sequenced in that replicate, which points to weak or no binding.
Of ten entries with the parent sequence, four were seen in most replicates (averages 0.34 to 2.37), three in one and three in none, so single entries are noisy.
In the paper, a design with two or fewer of six values counts as a poor binder.
Empty control strains, which show no peptide, gave a signal in 4% of pairings with all light chain designs; the median was 2.64 and 95% of these signals were weaker than 1.59. No background was subtracted. For each scFv, signals with the empty controls are counted beside the result, with their mean in brackets.
Values of this round are not directly comparable with the first-round values of the same sequences.

| CDR-L1 | CDR-L2 | CDR-L3 | log10 Kd (nM) by replicate | mean, log10 nM | signal with controls |
|---|---|---|---|---|---|
| KVSEFMRGLMSRQDSIA | DNVTRNN | QQYDRLPLS | 1.84 / 3.91 / 1.23 / 1.96 / 2.12 / 1.54 | 2.10 | 7 of 18 (3.35) |
| MISQIYNMGQFAINSVA | QASLRCN | QQYDRLPLM | n.d. / n.d. / n.d. / n.d. / n.d. / n.d. | n.d. | 0 of 18 |
| KLVNFMNRGTHHTSNIA | DAVNRLD | QQYARLPLA | 0.35 / 0.36 / 0.19 / 0.16 / 0.47 / 0.12 | 0.28 | 1 of 18 (3.22) |
| SISGFMKSLAAHMNSVA | DMTNRED | QQYNRLPLS | 0.26 / -0.13 / -0.14 / -0.29 / -0.12 / -0.15 | -0.09 | 0 of 18 |
| IVSQMMLWGMHLKNSIA | EAQTRVN | QQYDRLPLF | n.d. / n.d. / n.d. / n.d. / n.d. / n.d. | n.d. | 0 of 18 |
| KISQMVRVGATHSNSIA | EEATRAK | QQYHRLPLA | 1.40 / 1.25 / 1.03 / 1.47 / 1.19 / 1.35 | 1.28 | 2 of 18 (2.64) |
| KITATMRFEQKISNNIA | EVTLRSN | QQYYRLPLS | n.d. / 0.63 / 1.30 / n.d. / n.d. / 2.35 | 1.43 | 0 of 18 |
| MISQVMNTLTRNGNNVA | DLQNRED | QQYFRLPLS | 0.76 / 0.69 / 0.75 / 0.81 / 0.39 / 1.19 | 0.76 | 0 of 18 |
| MVSQLMLWGLHAKNSIA | EAQTRIN | QQYDRLPLE | 1.65 / 0.86 / 1.16 / 1.17 / 1.10 / 1.27 | 1.20 | 1 of 18 (1.14) |
| KIYQFGLNHTHNTNSIA | DQECREA | QQYDRLPLS | 1.70 / 1.84 / 1.31 / n.d. / 2.05 / n.d. | 1.72 | 1 of 18 (1.87) |
| KVSEFMKGLMMRTDSIA | DNETRNN | QQYDRLPLS | n.d. / 1.47 / n.d. / 2.41 / 2.70 / 2.20 | 2.19 | 2 of 18 (2.54) |
| QLGMTLKELSKVTNNVA | EMTTRGT | QQYFRLPLA | n.d. / 0.99 / n.d. / 1.82 / 1.07 / 1.38 | 1.32 | 0 of 18 |
| KVSEFMRGLMKKQDSIA | DNETRNS | QQYDRLPLS | 1.18 / 1.90 / 2.06 / 2.26 / 4.45 / 2.25 | 2.35 | 0 of 18 |
| TISQMSQLFSQTINNVA | EVSTRLN | QQYDRLPLA | 0.71 / 0.82 / 1.16 / 0.95 / 1.02 / 1.49 | 1.02 | 1 of 18 (2.43) |
| KVSEFMKGLMMRTDSIA | DNTTREN | QQYDRLPLS | n.d. / 1.76 / 2.28 / n.d. / 2.35 / n.d. | 2.13 | 0 of 18 |
| TIGQMLMQGIRNRSNVA | EVSQRLN | QQYDRLPLL | 1.04 / 1.13 / 1.07 / 0.73 / 0.70 / 0.96 | 0.94 | 1 of 18 (1.80) |
| KISMTSDMELKNRNSVA | ELVTRMS | QQYNRLPLS | 0.90 / 0.62 / 0.49 / 0.39 / 0.64 / 0.66 | 0.62 | 1 of 18 (1.42) |
| IVSQLMLWGYHAKNSIA | EAEQRIN | QQYDRLPLF | n.d. / n.d. / n.d. / n.d. / n.d. / n.d. | n.d. | 0 of 18 |
| NIYQAMHTLSQSRNNVA | DVNERGS | QQYFRLPLS | -0.53 / -0.51 / -0.32 / -0.68 / -0.19 / -0.66 | -0.48 | 1 of 18 (0.66) |
| MISQLMNMGTFAINSVA | QAQLRNE | QQYDRLPLT | n.d. / n.d. / n.d. / n.d. / n.d. / n.d. | n.d. | 0 of 18 |
| KIGMTLHQLMHQKNNVA | DLVMREQ | QQYHRLPLS | 0.49 / -0.03 / 0.30 / -0.08 / 0.33 / 0.61 | 0.27 | 1 of 18 (2.37) |
| KVSEFMRGLMQRQDSIA | DNVTRNN | QQYDRLPLS | 0.86 / 1.51 / 1.11 / 1.11 / 1.15 / 1.39 | 1.19 | 1 of 18 (3.68) |
| TISMVMNHMSRNENNVA | NMDMRSN | QQYDRLPLS | 0.44 / 0.63 / 0.25 / 0.20 / 0.00 / 0.70 | 0.37 | 1 of 18 (3.03) |
| MVNGIMDHLSKQTNNVA | ETTTREE | QQYERLPLS | 0.35 / 1.53 / 0.49 / 1.06 / 1.18 / 1.32 | 0.99 | 0 of 18 |
| TISGVMQQMSHSKSNVA | EVSTRLD | QQYVRLPLE | 0.89 / 1.12 / n.d. / -0.13 / 0.93 / 0.63 | 0.69 | 0 of 18 |
| QLSSITGHMSMIKNNVA | EMETRED | QQYERLPLS | 0.83 / 1.21 / 1.02 / 0.60 / 0.67 / 1.50 | 0.97 | 0 of 18 |
| MISQLYNMGTFAINSVA | QASIRNE | QQYDRLPLQ | 0.66 / 1.53 / 0.59 / 0.61 / 0.62 / 1.47 | 0.91 | 0 of 18 |
| KLQSITGTEKVKGNNVA | EMETRER | QQYNRLPLA | 0.07 / 0.37 / 0.10 / 0.41 / 0.43 / 0.42 | 0.30 | 1 of 18 (2.13) |
| MISQIYNMGQFAINSVA | QASIRNS | QQYDRLPLM | 2.69 / 1.75 / 2.76 / 1.82 / 2.17 / 2.26 | 2.24 | 2 of 18 (2.92) |
| TISQITSLFSQTINNVA | EVSTREE | QQYDRLPLS | 0.75 / 0.60 / 0.26 / 1.27 / 1.45 / 0.79 | 0.85 | 0 of 18 |
| TISQMTSLFSQTINNVA | EVSTREQ | QQYDRLPLI | 1.50 / 0.69 / 1.09 / 0.58 / 0.65 / 1.20 | 0.95 | 0 of 18 |

The 3 strongest on average among those seen in every replicate, once more:

{"CDR-L1": "NIYQAMHTLSQSRNNVA", "CDR-L2": "DVNERGS", "CDR-L3": "QQYFRLPLS", "log10 Kd (nM) by replicate": "-0.53 / -0.51 / -0.32 / -0.68 / -0.19 / -0.66", "mean, log10 nM": "-0.48", "signal with controls": "1 of 18 (0.66)"}
{"CDR-L1": "SISGFMKSLAAHMNSVA", "CDR-L2": "DMTNRED", "CDR-L3": "QQYNRLPLS", "log10 Kd (nM) by replicate": "0.26 / -0.13 / -0.14 / -0.29 / -0.12 / -0.15", "mean, log10 nM": "-0.09", "signal with controls": "0 of 18"}
{"CDR-L1": "KIGMTLHQLMHQKNNVA", "CDR-L2": "DLVMREQ", "CDR-L3": "QQYHRLPLS", "log10 Kd (nM) by replicate": "0.49 / -0.03 / 0.30 / -0.08 / 0.33 / 0.61", "mean, log10 nM": "0.27", "signal with controls": "1 of 18 (2.37)"}